# Where two headings read alike, the source gives them in different places.
# By UniProt entry, the sequences of proteins in these tests, tags left out. Where a name states a change or a piece, a line headed by the entry shows the natural chain unless it says otherwise. Residues count along the entry.
# UniProt P14416, whole entry: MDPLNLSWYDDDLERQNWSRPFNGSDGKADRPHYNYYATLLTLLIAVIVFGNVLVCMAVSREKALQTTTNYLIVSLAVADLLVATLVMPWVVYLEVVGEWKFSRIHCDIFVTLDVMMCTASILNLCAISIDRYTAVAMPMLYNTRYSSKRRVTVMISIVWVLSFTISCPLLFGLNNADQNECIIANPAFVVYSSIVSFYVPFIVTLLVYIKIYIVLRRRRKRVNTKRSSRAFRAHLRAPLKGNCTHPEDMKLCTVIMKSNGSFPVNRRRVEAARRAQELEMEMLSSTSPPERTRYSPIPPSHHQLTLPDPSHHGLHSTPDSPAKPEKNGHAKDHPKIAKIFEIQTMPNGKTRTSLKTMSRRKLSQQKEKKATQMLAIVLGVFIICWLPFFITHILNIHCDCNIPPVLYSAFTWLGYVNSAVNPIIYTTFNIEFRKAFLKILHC
# UniProt P28223, whole entry: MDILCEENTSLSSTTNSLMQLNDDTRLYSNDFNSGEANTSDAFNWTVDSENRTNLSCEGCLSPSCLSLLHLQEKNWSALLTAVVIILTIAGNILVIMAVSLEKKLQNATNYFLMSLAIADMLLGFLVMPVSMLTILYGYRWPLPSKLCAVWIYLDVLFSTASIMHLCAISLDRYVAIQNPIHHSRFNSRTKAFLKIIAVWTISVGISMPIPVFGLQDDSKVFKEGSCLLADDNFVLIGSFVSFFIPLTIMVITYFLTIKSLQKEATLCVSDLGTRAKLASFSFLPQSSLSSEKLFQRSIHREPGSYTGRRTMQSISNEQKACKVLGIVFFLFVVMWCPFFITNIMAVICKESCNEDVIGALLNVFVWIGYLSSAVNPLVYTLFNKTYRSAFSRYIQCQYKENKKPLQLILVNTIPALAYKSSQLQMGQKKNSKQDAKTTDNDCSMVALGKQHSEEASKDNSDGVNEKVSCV
# UniProt Q63380, 1-617: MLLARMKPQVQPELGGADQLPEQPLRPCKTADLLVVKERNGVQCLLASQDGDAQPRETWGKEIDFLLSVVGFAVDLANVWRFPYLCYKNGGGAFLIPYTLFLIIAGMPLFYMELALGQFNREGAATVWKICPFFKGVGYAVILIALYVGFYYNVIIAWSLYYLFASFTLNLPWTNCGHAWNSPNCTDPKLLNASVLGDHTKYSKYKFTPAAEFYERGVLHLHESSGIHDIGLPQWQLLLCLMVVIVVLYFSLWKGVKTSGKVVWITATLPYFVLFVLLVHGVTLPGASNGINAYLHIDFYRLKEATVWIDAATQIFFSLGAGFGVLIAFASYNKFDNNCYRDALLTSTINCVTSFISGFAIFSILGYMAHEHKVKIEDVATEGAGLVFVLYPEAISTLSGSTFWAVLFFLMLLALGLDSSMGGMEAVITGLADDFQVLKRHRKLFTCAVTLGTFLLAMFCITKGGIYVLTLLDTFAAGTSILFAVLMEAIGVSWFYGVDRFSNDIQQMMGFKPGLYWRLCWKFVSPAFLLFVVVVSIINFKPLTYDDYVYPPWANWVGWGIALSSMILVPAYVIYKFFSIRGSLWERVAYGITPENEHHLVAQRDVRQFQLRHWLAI
# UniProt P28335, 33-458 limits assumed: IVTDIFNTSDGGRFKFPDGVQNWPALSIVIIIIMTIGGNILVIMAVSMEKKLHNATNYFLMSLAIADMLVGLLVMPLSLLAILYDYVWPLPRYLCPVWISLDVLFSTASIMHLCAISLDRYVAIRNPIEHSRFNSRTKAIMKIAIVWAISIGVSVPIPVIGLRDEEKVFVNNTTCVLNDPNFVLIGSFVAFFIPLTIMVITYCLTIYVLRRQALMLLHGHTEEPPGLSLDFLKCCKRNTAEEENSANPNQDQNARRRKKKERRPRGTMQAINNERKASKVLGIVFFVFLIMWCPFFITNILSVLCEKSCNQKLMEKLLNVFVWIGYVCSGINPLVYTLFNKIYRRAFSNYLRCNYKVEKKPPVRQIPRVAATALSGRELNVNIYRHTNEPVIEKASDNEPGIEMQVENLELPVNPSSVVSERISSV
# Assays:
# [1] = molecular target: human Dopamine D2L receptor (Homo sapiens, UniProt P14416); experiment: In vitro binding affinity for human D2L receptor ([3H]Spiperone binding); conditions: human D2L receptor-transfected CHO cell membranes
# [2] = molecular target: human cloned 5-HT2A receptor, expressed in L929 cells (Homo sapiens, UniProt P28223); experiment: In vitro binding affinity for 5-HT2A receptor ([125I]R91150 radioligand binding); conditions: human cloned 5-HT2A receptor in L929 cells
# Description: In Vitro Binding Affinity for 5-HT2A and 5-HT2C Receptors
# The interaction of the compounds of Formula (I) with 5-HT2A and 5-HT2C receptors was assessed in in vitro radioligand binding experiments. In general, a low concentration of a radioligand with a high binding affinity for the receptor is incubated with a sample of a tissue preparation enriched in a particular receptor (1 to 5 mg tissue) in a buffered medium (0.2 to 5 ml). During the incubation, the radioligands bind to the receptor. When equilibrium of binding is reached, the receptor bound radioactivity is separated from the non-bound radioactivity, and the receptor bound activity is counted. The interaction of the test compounds with the receptors is assessed in competition binding experiments. Various concentrations of the test compound are added to the incubation mixture containing the tissue preparation and the radioligand. Binding of the radioligand will be inhibited by the test compound in proportion to its binding affinity and its concentration. The affinities of the compounds for the 5-HT2 receptors were measured by means of radioligand binding studies conducted with: (a) human cloned 5-HT2A receptor, expressed in L929 cells using [^125I]R91150 as radioligand and (b) human cloned 5-HT2C receptor, expressed in CHO cells using [^3H]mesulergine as radioligand. […]
# [3] = molecular target: NET (norepinephrine transporter) (Rattus norvegicus, UniProt Q63380); experiment: In vitro determination of NET reuptake inhibition ([3H]Nixosetine binding, rat brain cortex)
# [4] = molecular target: human cloned 5-HT2C receptor, expressed in CHO cells (Homo sapiens, UniProt P28335); experiment: In vitro binding affinity for 5-HT2C receptor ([3H]mesulergine radioligand binding)
D2L pIC50 [1],5-HT2A pIC50 [2],NET pIC50 [3],5-HT2C pIC50 [4],D2L pIC50 ([1]; tested form: TFA),5-HT2A pIC50 ([2]; tested form: TFA),NET pIC50 ([3]; tested form: TFA),5-HT2C pIC50 ([4]; tested form: TFA),Structure (SMILES)
6.76,7.60,5.16,7.65,,,,,N#Cc1ccc2c(c1)Cc1ccc(F)cc1C1OC(CN3CCC(O)C3)CC21 (centres unmarked)
,,,,6.97,7.15,5.75,6.83,Fc1ccc(-c2ccc(CN3CCN(CC4CC5c6ccccc6Cc6ccc(F)cc6C5O4)CC3)o2)c(F)c1 (centres unmarked)

# — patent publication US8569267B2, “Tetracyclic tetrahydrofuran derivatives containing cyclic amine side chain” (Janssen Pharmaceutica, NV, priority 2005, dated 2013)
